In PMC8998617 one finds Kd data, which are given here for two substances.

Sequences of proteins named here, by UniProt entry; tags and fusion partners are left off. Residues count along the entry.
UniProt P52948, 1-498: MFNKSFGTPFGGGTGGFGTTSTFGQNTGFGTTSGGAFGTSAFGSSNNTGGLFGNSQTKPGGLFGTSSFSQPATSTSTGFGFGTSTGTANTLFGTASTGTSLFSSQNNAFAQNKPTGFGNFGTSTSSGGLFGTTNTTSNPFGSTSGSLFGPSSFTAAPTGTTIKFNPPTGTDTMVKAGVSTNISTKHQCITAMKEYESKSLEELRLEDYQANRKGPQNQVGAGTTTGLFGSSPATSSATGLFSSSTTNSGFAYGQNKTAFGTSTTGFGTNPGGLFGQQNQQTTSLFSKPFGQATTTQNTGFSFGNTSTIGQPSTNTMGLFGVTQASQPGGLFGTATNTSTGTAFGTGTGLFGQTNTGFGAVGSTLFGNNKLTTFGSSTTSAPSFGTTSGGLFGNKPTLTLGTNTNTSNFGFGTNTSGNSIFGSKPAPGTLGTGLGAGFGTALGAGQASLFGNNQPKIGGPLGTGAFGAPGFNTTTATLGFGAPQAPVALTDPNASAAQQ

Like-named read-outs stand apart in the source and are kept apart here.

The target of assay [1] is Nup98-FG (N-terminal FG-domain of Nup98, aa 1-498) with one additional N-terminal cysteine, tethered to the SPR gold chip (UniProt P52948). Description: SPR; Biacore T200; Nup98-FG or Nup98-FG/FS tethered by its N-terminal cysteine to the gold sensor chip; Tau proteins injected at increasing concentrations in PBS; BSA injected after each Tau injection; equilibrium constants from one- or two-component Langmuir fits. In general terms: Surface plasmon resonance follows binding to a sensor surface in real time, without labels.

The target of assay [2] is His-tagged Nup98-FG (aa 1-498), immobilised on BLI biosensors (UniProt P52948). Put plainly: BLI; BLItz instrument; His-tagged Nup98-FG immobilised on Ni-NTA or HIS biosensors; Tau variants (fresh, monomeric; 1, 2 and 4 µM) in PBS.
In assay [3] the target is Nup98-FG (N-terminal FG-domain of Nup98, aa 1-498) with one additional N-terminal cysteine, tethered to the SPR gold chip (UniProt P52948). Description: SPR; Biacore T200; Nup98-FG or Nup98-FG/FS tethered by its N-terminal cysteine to the gold sensor chip; Tau proteins injected at increasing concentrations in PBS; BSA injected after each Tau injection; equilibrium constants from one- or two-component Langmuir fits. The source holds these as a separate data set.

Usually Kd stands for the free concentration of one partner at which half of the binding sites on the other are occupied at equilibrium, for simple one-to-one binding. A higher Kd goes with lower affinity. The substance “phosphorylated Tau (P-Tau), human full-length Tau 2N4R purified from insect cells (from UniProt P10636-8 1-441) (natural protein)” displayed a Kd in assay [1] of 12200 nM.

As to “recombinant human full-length Tau (2N4R, 441 aa), non-phosphorylated (from UniProt P10636-8 1-441) (natural protein)”, the Kd in assay [2] was found to be 860 nM; in assay [1] it was 1130 nM; in assay [3] it was 400 nM.
